Laboratory results: patent US20180110824A1

The chains behind the UniProt entries cited, without tags or fusion partners.
UniProt Q92847, whole entry: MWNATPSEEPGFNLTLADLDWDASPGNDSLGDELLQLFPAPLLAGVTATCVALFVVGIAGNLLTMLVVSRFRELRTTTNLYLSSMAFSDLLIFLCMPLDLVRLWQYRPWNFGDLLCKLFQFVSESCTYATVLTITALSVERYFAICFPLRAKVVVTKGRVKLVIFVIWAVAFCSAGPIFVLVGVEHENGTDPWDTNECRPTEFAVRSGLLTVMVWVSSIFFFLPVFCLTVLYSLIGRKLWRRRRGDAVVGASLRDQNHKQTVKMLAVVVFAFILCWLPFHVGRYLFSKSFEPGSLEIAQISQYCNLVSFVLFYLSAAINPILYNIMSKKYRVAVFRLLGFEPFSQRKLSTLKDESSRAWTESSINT
UniProt O43193, whole entry: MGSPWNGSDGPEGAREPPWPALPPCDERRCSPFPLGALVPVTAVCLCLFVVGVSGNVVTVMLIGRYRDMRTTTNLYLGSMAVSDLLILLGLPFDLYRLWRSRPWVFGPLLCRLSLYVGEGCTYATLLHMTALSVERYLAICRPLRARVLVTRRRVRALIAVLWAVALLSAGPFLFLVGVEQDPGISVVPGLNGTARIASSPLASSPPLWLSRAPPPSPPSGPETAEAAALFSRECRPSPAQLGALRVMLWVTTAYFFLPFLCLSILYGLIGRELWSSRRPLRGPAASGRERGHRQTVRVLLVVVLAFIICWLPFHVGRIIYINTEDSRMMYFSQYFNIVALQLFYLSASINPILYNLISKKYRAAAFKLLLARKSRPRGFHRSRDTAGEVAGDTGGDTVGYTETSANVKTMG

What was measured:
[1] = molecular target: human growth hormone secretagogue receptor (hGHS-R1a) (Homo sapiens, UniProt Q92847); assay: Competitive radioligand binding assay (ghrelin receptor), [125I]-ghrelin displacement on GHS-R/HEK 293 membranes
[2] = molecular target: human ghrelin receptor (hGHS-R1a) (Homo sapiens, UniProt Q92847); type: cell-based; conditions: Table 4; functional (agonist) activity; TFA salts unless otherwise noted
motilin receptor = motilin receptor (Homo sapiens, UniProt O43193); assay: Selectivity for the ghrelin receptor versus the motilin receptor
[3] = Table 4, TFA salts unless otherwise noted

**Q.** With `CC[C@H](C)[C@@H]1NC[C@H](C)Oc2ccccc2CCCNC(=O)[C@H](Cc2cccc(Cl)c2)NC(=O)C2(CCCC2)NC1=O` as the compound, how does the Ki ([1]; Table 3B, binding activity at the human ghrelin receptor) read?
**A.** The Ki was 0.1 to 1 µM.

**Q.** And the Ki [1, 3]?
**A.** The Ki was 0.0001 to 0.01 µM.

**Q.** What about the EC50 [2] of the same compound?
**A.** The EC50 was > 1 µM.

**Q.** And the Selectivity (motilin receptor)?
**A.** The Selectivity was 300/1.

**Q.** For `CC[C@H](C)[C@@H]1NCCCc2ccccc2C=CCNC(=O)[C@@H](Cc2ccccc2)NC(=O)[C@@H](C)N(C)C1=O`, which Ki ([1]; Binding activity at the human ghrelin receptor, [125I]-ghrelin displacement) is on record?
**A.** Its Ki is 0.01 to 0.1 µM.

**Q.** What about the Ki [1, 3] of the same compound?
**A.** The Ki was 0.01 to 0.1 µM.

**Q.** And the EC50 [2]?
**A.** Its EC50 is 0.001 to 0.1 µM.

**Q.** What about the Selectivity (motilin receptor) of the same compound?
**A.** Its Selectivity is >800/1.
